Ab-95 light chain CDR variants: yeast mating affinities

The measurements come from Engelhart et al. 2022 (doi:10.1038/s41597-022-01779-4) through the FLAb antibody collection.

Target: peptide PDVDLGDISGINAS, taken from heptad repeat 2 (HR2) of SARS-CoV-2 spike.

The variants keep the heavy chain, the linker and the frameworks of Ab-95 (scFv order VH, a (GGGGS)3 linker, VL).
VH: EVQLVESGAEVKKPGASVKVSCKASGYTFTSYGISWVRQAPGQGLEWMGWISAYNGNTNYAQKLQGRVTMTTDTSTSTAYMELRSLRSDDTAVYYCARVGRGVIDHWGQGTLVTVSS
VL: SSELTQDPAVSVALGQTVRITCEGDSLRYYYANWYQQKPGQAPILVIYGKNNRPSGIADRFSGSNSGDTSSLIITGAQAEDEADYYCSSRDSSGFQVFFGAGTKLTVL

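Phage display of a naive human antibody library on the peptide gave the parent. Library AAYL52 holds single substitutions and randomly drawn double and triple substitutions in the CDRs. In AlphaSeq, yeast of one mating type display the scFv and yeast of the other type display the target. After mating in shaken culture at 30 °C for 16 h, diploids were selected and their barcode pairs sequenced. The ratio of observed to expected reads was calibrated, replicate by replicate, on BCL2-family standards whose Kd was known from biolayer interferometry. The assay was run in three technical replicates.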

Each variant is given by its three light chain CDRs, as the data file delimits them; those of the parent are EGDSLRYYYAN, GKNNRPS, SSRDSSGFQVF. The read-out is the apparent dissociation constant on a log10 scale (nM): the lower, the stronger. A mean of the replicates is given; it leaves out those without a signal. "n.d." means that the variant was in the library but no mating with the target was seen in that replicate; the authors take this as a sign of poor binding, and no number exists.

| CDR-L1 | CDR-L2 | CDR-L3 | log10 Kd, replicates | log10 Kd (nM), mean | control signals |
|---|---|---|---|---|---|
| EGDSLRYYCRD | GKNNRPS | SSRDSSGFQVF | n.d. 3.36 n.d. | 3.36 | 7 of 9 (4.32) |
| EGDSLRYYYAN | GKNNRPS | RSRDSSGFQVF | 3.17 4.52 n.d. | 3.84 | 4 of 9 (4.35) |
| EGDSLWYYYAN | GKNNRPS | SSRDRSQFQVF | 2.71 3.51 3.05 | 3.09 | 2 of 9 (3.72) |
| EGDQLRYKHAN | GKNNRPS | SSRDSSGFQVF | 2.15 3.06 2.36 | 2.52 | 0 of 9 |
| EGDSRRYAYAN | GKNNRPS | SSRDSWGFQVF | 5.39 n.d. n.d. | 5.39 | 2 of 9 (3.58) |
| EGDSLIYYYAN | GKNNRPG | SSRDSSGFQEF | 3.53 3.10 n.d. | 3.31 | 1 of 9 (3.01) |
| EGDSLRYYYAN | GTPNRPS | SSRDSSGFQVF | 3.88 3.81 3.74 | 3.81 | 5 of 9 (3.58) |
| EGISLRYYYAN | GKNNGPS | SSRDSCGFQVF | n.d. 3.54 3.19 | 3.37 | 5 of 9 (3.71) |
| EGDSLRYYKLN | GKNNRPS | SSRWSSGFQVF | 4.69 3.16 n.d. | 3.92 | 5 of 9 (4.16) |
| EGDSIRVYYAN | GKNNRPS | SSRDSSVFQVF | 4.10 n.d. n.d. | 4.10 | 4 of 9 (4.29) |
| EGDSLRYFYAN | GKNWRPS | SSRDSSGFQVF | 3.22 2.96 n.d. | 3.09 | 0 of 9 |
| EGDSLKYYYAN | GKNNRPS | SSADSSGLQVF | 2.63 2.47 1.93 | 2.34 | 1 of 9 (4.04) |
| EDDSLRYYYAN | GANNRPS | SSRDSSMFQVF | n.d. n.d. n.d. | n.d. | 2 of 9 (3.84) |
| EGDSDRYYYAN | GKNNRPS | SSRDSSHFQVF | 3.56 n.d. n.d. | 3.56 | 2 of 9 (3.51) |
| EGDSLRYYPAN | GKNNHPS | SSRDSSGFQVF | 1.49 1.33 0.94 | 1.25 | 6 of 9 (4.69) |
| EGDSLDYYYAS | GKNNRPS | SARDSSGFQVF | 2.31 2.22 1.93 | 2.15 | 4 of 9 (4.33) |
| EGDDLRYTYAN | GKNNRPS | SSWDSSGFQVF | 1.72 1.66 2.04 | 1.81 | 7 of 9 (4.01) |
| EGESLRYYYAN | GKNNRPS | SSRDENGFQVF | 1.83 1.71 1.51 | 1.68 | 2 of 9 (3.54) |
| ELDRLRYYYAN | GKNNRPS | SSRDSSGFQVM | 3.52 4.87 3.65 | 4.01 | 4 of 9 (4.15) |
| ERDSLRYYYAN | GKNNRPS | SSRDSSGFQCH | n.d. n.d. n.d. | n.d. | 1 of 9 (3.16) |
| EGDSLRYYYAT | GKSNRPS | SSRDSSGFYVF | 3.63 n.d. n.d. | 3.63 | 2 of 9 (3.84) |
| EGDSLQYCYAN | GKNNRPS | SSRNSSGFQVF | n.d. n.d. n.d. | n.d. | 5 of 9 (4.10) |
| EGDSLRYYHAN | GKNNAPS | SSRDSSGFQVF | 2.52 1.98 1.88 | 2.13 | 3 of 9 (3.98) |
| EGGSLRYYYAN | GKNTRPS | SSRDSRGFQVF | 3.05 3.05 2.39 | 2.83 | 2 of 9 (3.40) |
| EGDSLFYYYAN | GKNNRPS | SSTDSSGFQVF | n.d. 3.87 n.d. | 3.87 | 0 of 9 |
| EGDSLRYYYAN | TKNNKPS | SSRDSSGFQVF | 4.03 3.42 3.32 | 3.59 | 3 of 9 (3.62) |
| DGDSRRYYYAN | GKNNRPS | SGRDSSGFQVF | 5.26 n.d. n.d. | 5.26 | 4 of 9 (3.39) |
| EGDSLRYYYAN | GKNKDPS | SSRYSSGFQVF | n.d. n.d. n.d. | n.d. | 3 of 9 (4.09) |
| EGDSLRFYYAN | GKNNRPS | SSQDSSGFHVF | 3.43 2.73 4.58 | 3.58 | 2 of 9 (3.98) |
| EGDSLRYYYAN | GKNNRPS | SSKDSSGFQLV | 3.39 3.29 3.81 | 3.50 | 5 of 9 (4.24) |
| EGGSLRYYYAN | GKNNRPK | SSRDYSGFQVF | 3.01 2.99 2.47 | 2.83 | 5 of 9 (4.03) |
| EGDSLRYYYVN | GKNNRPS | SSWDSSLFQVF | n.d. n.d. 3.23 | 3.23 | 4 of 9 (3.55) |
| SGDSLRYYYAN | GKNNRPS | SWVDSSGFQVF | 2.87 2.88 2.65 | 2.80 | 3 of 9 (3.79) |
| EGDSLRYYYAN | GKNNRPS | QSRDSSGFQVF | 2.64 2.47 2.19 | 2.43 | 2 of 9 (4.18) |
| EGDSLRYYGAN | GKNNRPI | SSRDSSGFQVF | 1.67 1.64 1.17 | 1.49 | 6 of 9 (4.15) |
| EGDSLRYYYAN | GKNNRQS | SSCDSSGFQKF | 2.96 n.d. n.d. | 2.96 | 0 of 9 |
| EGDSLRYYYAN | GKNNRPS | SSSYSSGFQVF | n.d. n.d. 4.50 | 4.50 | 0 of 9 |
| EGDSLRYYYAN | SKNNRPS | SSRDSSGFQMF | n.d. 5.21 n.d. | 5.21 | 2 of 9 (4.81) |
| EGKSLRYYYAN | GKNNRQS | SSRDSAGFQVF | 2.65 3.37 2.81 | 2.94 | 1 of 9 (4.39) |
| KADSLRYYYAN | GGNNRPS | SSRDSSGFQVF | 2.44 2.29 1.87 | 2.20 | 4 of 9 (4.91) |
| EKDSLRYYYAN | GKNNRVS | SSRDSSGFQVK | 3.92 n.d. 4.52 | 4.22 | 5 of 9 (4.05) |
| EGDSARFYYAN | GKTNRPS | SSRDSSGFQVF | 4.26 4.12 3.13 | 3.84 | 5 of 9 (4.41) |
| EGRSLRYYYAN | GKNNRPS | YSRDSSGFQVI | 2.55 2.80 2.47 | 2.61 | 5 of 9 (3.66) |
| EGDSLRYYYAN | GKNNRPS | SSADPSGFQVF | n.d. n.d. n.d. | n.d. | 2 of 9 (4.19) |

6 of these entries, quoted again:

{"CDR-L1": "EGDSLRYYKLN", "CDR-L2": "GKNNRPS", "CDR-L3": "SSRWSSGFQVF", "log10 Kd, replicates": "4.69 3.16 n.d.", "log10 Kd (nM), mean": "3.92", "control signals": "5 of 9 (4.16)"}
{"CDR-L1": "EGDSLRYYYAN", "CDR-L2": "GKNNRPS", "CDR-L3": "SSSYSSGFQVF", "log10 Kd, replicates": "n.d. n.d. 4.50", "log10 Kd (nM), mean": "4.50", "control signals": "0 of 9"}
{"CDR-L1": "EGDSLRYYCRD", "CDR-L2": "GKNNRPS", "CDR-L3": "SSRDSSGFQVF", "log10 Kd, replicates": "n.d. 3.36 n.d.", "log10 Kd (nM), mean": "3.36", "control signals": "7 of 9 (4.32)"}
{"CDR-L1": "EKDSLRYYYAN", "CDR-L2": "GKNNRVS", "CDR-L3": "SSRDSSGFQVK", "log10 Kd, replicates": "3.92 n.d. 4.52", "log10 Kd (nM), mean": "4.22", "control signals": "5 of 9 (4.05)"}
{"CDR-L1": "EGDSLKYYYAN", "CDR-L2": "GKNNRPS", "CDR-L3": "SSADSSGLQVF", "log10 Kd, replicates": "2.63 2.47 1.93", "log10 Kd (nM), mean": "2.34", "control signals": "1 of 9 (4.04)"}
{"CDR-L1": "SGDSLRYYYAN", "CDR-L2": "GKNNRPS", "CDR-L3": "SWVDSSGFQVF", "log10 Kd, replicates": "2.87 2.88 2.65", "log10 Kd (nM), mean": "2.80", "control signals": "3 of 9 (3.79)"}

As a blank, each scFv also met three strains without target: over library AAYL52, 28% of these pairings were detected, typically at 3.91 and seldom below 2.90. Also given: how often the same scFv was detected with the empty control strains, with their mean in brackets. Parent in this assay: reference entry 2.31, copy in this library 2.25.